Reference: ChEMBL document CHEMBL1926592, “Synthesis and in vitro evaluation of fluorinated styryl benzazoles as amyloid-probes” (Bioorg Med Chem, 2011)

By UniProt entry, the sequences of proteins in these tests, tags left out.
UniProt P05067, whole entry: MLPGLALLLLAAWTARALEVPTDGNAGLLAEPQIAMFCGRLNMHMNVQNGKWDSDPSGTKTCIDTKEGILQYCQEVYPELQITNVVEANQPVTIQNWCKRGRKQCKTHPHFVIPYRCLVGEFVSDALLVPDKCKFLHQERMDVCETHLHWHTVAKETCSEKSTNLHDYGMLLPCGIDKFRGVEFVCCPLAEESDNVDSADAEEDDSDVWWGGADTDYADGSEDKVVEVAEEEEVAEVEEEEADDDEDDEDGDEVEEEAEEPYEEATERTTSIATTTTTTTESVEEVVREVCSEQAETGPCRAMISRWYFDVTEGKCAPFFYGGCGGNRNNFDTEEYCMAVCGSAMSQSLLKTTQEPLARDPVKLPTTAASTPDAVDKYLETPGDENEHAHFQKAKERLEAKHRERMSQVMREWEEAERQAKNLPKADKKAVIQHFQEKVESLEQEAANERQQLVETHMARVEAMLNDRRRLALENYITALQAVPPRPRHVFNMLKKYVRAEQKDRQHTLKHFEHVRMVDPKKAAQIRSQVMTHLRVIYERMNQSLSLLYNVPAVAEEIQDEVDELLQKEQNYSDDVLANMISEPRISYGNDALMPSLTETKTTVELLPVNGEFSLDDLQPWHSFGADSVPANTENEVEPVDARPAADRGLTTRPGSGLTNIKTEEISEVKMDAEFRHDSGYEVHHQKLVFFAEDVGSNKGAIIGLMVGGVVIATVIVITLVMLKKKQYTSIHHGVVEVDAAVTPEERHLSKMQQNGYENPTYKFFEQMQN

Target: Amyloid-beta precursor protein (Homo sapiens, UniProt P05067)
Assay: Binding affinity to human amyloid beta (1 to 42) fibril by fluorescence intensity assay
How it was run: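 Fibrils grown from human insulin (3 mg/mL, Tris-HCl 50 mM pH 3), E. coli-expressed human α-syn (3 mg/mL, pH 7.4) or Aβ(1–42) (0.5 mg/ml, 1% NH4OH). Fibril level taken as supernatant protein depletion. Fixed fibrils (3.5–11.35) titrated with ligand (DMSO stock diluted into 50 mM Tris-HCl pH 7.4). Plate-reader intensity read at each ligand's maximal excitation/emission wavelengths, dye blanks subtracted. Kd from single-site saturation fit.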

SMILES: Cc1ccc2c(c1)sc(-c1ccc(N(C)C)cc1)[n+]2C.[Cl-] [THIOFLAVIN T]
- Kd: 2.56 µM⁻¹
